## Antibody variant affinities, Ab-91 heavy chain, assay 2

Values reported by Engelhart et al. 2022, doi:10.1038/s41597-022-01779-4 (FLAb copy).

All variants were tested on one target, the spike HR2 peptide PDVDLGDISGINAS (SARS-CoV-2).

Parent scFv Ab-91: VL joined to VH by a (GGGGS)3 linker. Changes lie in the heavy chain CDRs alone.
VL: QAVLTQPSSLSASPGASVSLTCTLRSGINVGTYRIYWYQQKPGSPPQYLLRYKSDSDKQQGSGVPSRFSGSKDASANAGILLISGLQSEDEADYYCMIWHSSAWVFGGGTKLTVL
VH: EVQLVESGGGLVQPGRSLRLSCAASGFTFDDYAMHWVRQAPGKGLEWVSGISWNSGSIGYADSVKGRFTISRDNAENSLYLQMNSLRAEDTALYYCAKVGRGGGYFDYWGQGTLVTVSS

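The parent was found by panning a naive human phage display library on the peptide. AAYL51 was designed without a model: most single CDR substitutions and a random sample of double and triple ones. The assay is AlphaSeq: two haploid yeast populations carry antibody and antigen on their surface. Pairs that bind mate more often; barcode pairs of the diploids are counted by sequencing. A regression on co-assayed BCL2-family reference pairs converts the normalised counts of each replicate to an apparent Kd. There are three technical replicates.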

Substitutions are numbered in sequence along the VH above, starting at 1 (not Kabat).
All variants listed here change G59 of the VH, counted from its first residue.
Values are apparent Kd, the geometric mean of the replicates that gave a signal; lower means stronger binding.
"nd" marks a missing value. The strain was present, yet no cells mated with the target were sequenced in any replicate, which points to weak or no binding.
Empty control strains, which show no peptide, gave a signal in 21% of pairings with library AAYL51; the median was 34 µM and 95% of these signals were weaker than 1.8 µM. No background was subtracted.

With I51T/W53A/G59N the result was 220 nM (3 of 3 replicates). Variant T28A/G59H/G104P gave 570 µM (1 of 3 replicates). For A33M/M34E/G59V, the assay gave 300 nM (3 of 3 replicates). Variant G50M/G59Q/R101L gave nd (0 of 3 replicates). For G59R/S63M/G102I, the assay gave nd (0 of 3 replicates).

For I51M/G59R/Y108Q, the assay gave nd (0 of 3 replicates). Variant G50P/G59A gave 49 µM (2 of 3 replicates). Variant F27R/G59W/Y108S showed 33 µM (3 of 3 replicates). With G56P/G59C/G102W the result was 27 µM (3 of 3 replicates). For G59C/G102R/F106D, the assay gave 42 µM (1 of 3 replicates).

Variant Y32S/G59F/V99Y showed 120 µM (2 of 3 replicates). Variant G56F/G59I/V99M showed nd (0 of 3 replicates). Variant F29L/G59W/F106T showed 60 µM (1 of 3 replicates). Variant I51G/G59A gave nd (0 of 3 replicates). With G56F/G59F/F106A the result was 78 µM (3 of 3 replicates).

For Y32Q/G59N/G100T, the assay gave nd (0 of 3 replicates). Variant G59I/G102W/G104E showed 2.2 µM (2 of 3 replicates). Variant G50Y/I58H/G59K gave 5.7 µM (1 of 3 replicates). Variant S55N/G59S showed nd (0 of 3 replicates). With H35E/G59F/Y105F the result was nd (0 of 3 replicates).

Variant G59I/A61G/Y108W gave 1.1 µM (1 of 3 replicates). Variant G59Q/D62F/F106G showed nd (0 of 3 replicates). Variant D31F/G59K/V99I showed 6.9 µM (3 of 3 replicates). With W53M/G59S/Y60H the result was 74 µM (1 of 3 replicates). Variant D30P/G59I/Y108G gave 330 µM (1 of 3 replicates).

Variant G56H/G59A gave 150 µM (1 of 3 replicates). Variant G50W/G59V/G103E showed 240 µM (3 of 3 replicates). Variant G59I showed 29 µM (2 of 3 replicates). With G59S/R101T/F106V the result was nd (0 of 3 replicates). Variant G59P/D62T gave 170 µM (1 of 3 replicates).

Variant G50T/G59K gave 1.2 µM (1 of 3 replicates). Variant A33Q/I58H/G59M gave nd (0 of 3 replicates). For G59H/S63M/G100R, the assay gave 7.7 µM (1 of 3 replicates). Variant N54L/S57N/G59N showed 22 µM (3 of 3 replicates). With T28A/G59E/G103H the result was 2.2 µM (2 of 3 replicates).

Variant G59T/A61L/Y105K showed nd (0 of 3 replicates). Variant I58K/G59E/D107G showed 2.8 µM (3 of 3 replicates). With I51V/G59E/G100Y the result was nd (0 of 3 replicates). With G59H/R101A/Y108I the result was nd (0 of 3 replicates). Variant M34Y/G59I/G100M gave 37 µM (2 of 3 replicates).

Top 6 of the variants detected in all replicates, tightest first:

{"changes": "I51T/W53A/G59N", "Kd (apparent)": "220 nM", "seen in": "3 of 3"}
{"changes": "A33M/M34E/G59V", "Kd (apparent)": "300 nM", "seen in": "3 of 3"}
{"changes": "I58K/G59E/D107G", "Kd (apparent)": "2.8 µM", "seen in": "3 of 3"}
{"changes": "D31F/G59K/V99I", "Kd (apparent)": "6.9 µM", "seen in": "3 of 3"}
{"changes": "N54L/S57N/G59N", "Kd (apparent)": "22 µM", "seen in": "3 of 3"}
{"changes": "G56P/G59C/G102W", "Kd (apparent)": "27 µM", "seen in": "3 of 3"}